This is an account of results in paper PMC4266796 (International Journal for Parasitology: Drugs and Drug …, 2014).

The subject of experiment [1] is W. pipientis wAlbB in C6/36 (wAlbB) cells. To be noted: 6 doses from 10 to 0.3 μM.
Experiment [2] has as its system Wolbachia of L. sigmodontis. The format is in vivo, Wolbachia of Litomosoides sigmodontis in BALB/c mice. Particulars: standard doses tested.

The structures appear in SMILES notation.

For `CCOC(=O)N1CCC(=C2c3ccc(Cl)cc3CCc3cccnc32)CC1` [Loratadine], in experiment [1], the “Dose response behaviour in titration series” value is “showed a dose response”. Further, the “Effect on Wolbachia load (in words)” value in experiment [2] is on record as “no effect”.
Take `O=C(O)c1cn(C2CC2)c2cc(N3CCNCC3)c(F)cc2c1=O`: in experiment [1], the “Dose response behaviour in titration series” value is “activity only at the highest concentration”. In addition, the “Effect on Wolbachia load (in words)” value in experiment [2] is reported as “did not reduce”.
